Source: patent US9718790B2, “Triazine derivative and pharmaceutical composition having an analgesic activity comprising the same” (SHIONOGI & CO., LTD., priority 2010, dated 2017)

Amino acid sequences for entries named in this document (tags omitted). A change or cut given only in a name is not applied to a line headed by its entry.
UniProt P56373: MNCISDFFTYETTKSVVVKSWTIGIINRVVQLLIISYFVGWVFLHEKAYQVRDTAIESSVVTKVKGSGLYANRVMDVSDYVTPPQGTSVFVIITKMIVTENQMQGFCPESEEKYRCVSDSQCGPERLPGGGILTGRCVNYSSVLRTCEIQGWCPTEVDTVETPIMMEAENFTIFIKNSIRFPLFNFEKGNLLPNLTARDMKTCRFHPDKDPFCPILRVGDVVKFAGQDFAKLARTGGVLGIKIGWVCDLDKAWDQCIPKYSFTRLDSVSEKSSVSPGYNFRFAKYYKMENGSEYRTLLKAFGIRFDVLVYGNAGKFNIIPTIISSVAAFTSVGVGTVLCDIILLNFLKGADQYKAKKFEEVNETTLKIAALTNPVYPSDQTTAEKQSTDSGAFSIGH

Target: human P2X3 receptor (Homo sapiens (Human), UniProt P56373)
Test: Evaluation of human P2X3 receptor inhibitory activity (Fluo-3 calcium fluorescence, FDSS 3000, ATP stimulation);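 also: stimulus was 50 nM ATP with fluorescence followed for 3 min, and the response per well was peak post-ATP fluorescence divided by the reading at measurement start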
Type: cell-based
Settings: Test Example 1

Compound CCn1c(=O)[nH]/c(=N\c2ccc(Oc3ccnc(C(=O)O)c3)cc2)n(CC2CCC(C)CC2)c1=O (stereo not shown) [Compound I-2422] has an IC50 of 7 nM.
